According to patent publication US4560692A, “4-Piperidino-2-phenylquinolines” (Hoffmann-La Roche Inc., priority 1984, dated 1985):

Target: ^3 H-Diazepam binding, rat brain cortical fragments
Assay: ^3 H-Diazepam binding assay
Details: standard drugs, inhibition of ^3 H-Diazepam binding by 50%
Protocol: Rat brain cortical fragments are prepared and the binding procedures performed as described by Mohler and Okada (Life Sciences, 20, 2101, 1977) except that Tris buffer is substituted for Krebs buffer. Drugs are assayed in triplicate. Radioactivity is measured by liquid scintillation counting.

CN1C(=O)CN=C(c2ccccc2F)c2cc([N+](=O)[O-])ccc21 [Flunitrazepam, reference compound]
IC50: 1.8 nM
